# Reference: patent publication US8952020B2, “Optically active pyrazolylaminoquinazoline, and pharmaceutical compositions and methods of use thereof” (Ambit Biosciences Corp., priority 2010, dated 2015)
# By UniProt entry, the sequences of proteins in these tests, tags left out.
# UniProt P11712, whole entry: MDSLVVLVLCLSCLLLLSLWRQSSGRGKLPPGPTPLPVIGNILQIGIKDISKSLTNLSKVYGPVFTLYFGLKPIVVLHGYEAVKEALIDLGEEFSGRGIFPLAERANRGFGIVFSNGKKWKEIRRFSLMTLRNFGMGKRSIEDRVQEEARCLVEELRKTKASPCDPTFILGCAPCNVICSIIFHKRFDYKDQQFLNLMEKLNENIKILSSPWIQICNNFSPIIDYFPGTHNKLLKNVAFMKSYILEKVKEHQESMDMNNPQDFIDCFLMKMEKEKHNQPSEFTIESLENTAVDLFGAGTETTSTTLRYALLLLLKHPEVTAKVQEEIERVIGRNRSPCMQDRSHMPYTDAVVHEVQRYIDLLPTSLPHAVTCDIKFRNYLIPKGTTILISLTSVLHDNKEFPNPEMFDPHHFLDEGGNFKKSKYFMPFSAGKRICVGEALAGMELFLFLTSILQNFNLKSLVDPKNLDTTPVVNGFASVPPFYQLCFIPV
# UniProt P0DMS8, whole entry: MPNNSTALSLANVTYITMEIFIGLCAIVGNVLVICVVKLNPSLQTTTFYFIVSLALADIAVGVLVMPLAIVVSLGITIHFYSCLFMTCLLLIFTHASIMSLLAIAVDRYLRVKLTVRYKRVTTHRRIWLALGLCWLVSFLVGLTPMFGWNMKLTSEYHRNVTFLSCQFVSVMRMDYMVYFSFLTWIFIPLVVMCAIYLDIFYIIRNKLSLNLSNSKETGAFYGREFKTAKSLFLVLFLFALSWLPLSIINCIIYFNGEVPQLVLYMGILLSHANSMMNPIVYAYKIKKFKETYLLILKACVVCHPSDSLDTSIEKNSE
# Legend:
# CYP2C9 = CYP2C9 (Homo sapiens, UniProt P11712); experiment: CYP450 inhibition in human liver microsomes
# [1] = Pharmacokinetic studies in monkeys
# human ADORA3 = human ADORA3 (Homo sapiens, UniProt P0DMS8); experiment: Adenosine A3 receptor antagonist PathHunter β-Arrestin cell based assay
# [2] = target: T1, human adenosine A3 receptor (Homo sapiens, UniProt P0DMS8); experiment: Adenosine A3 receptor radioligand binding assay ([125I] AB-MECA); conditions: Cheng-Prusoff from observed IC50
# T1 construct: expressed in transfected cells; host or cells: CHO-K1
structure (smiles),measurement,setting,value
Cc1cc(Nc2nc(C(O)c3ccc(F)cc3)nc3ccccc23)n[nH]1 (racemic) [Racemate],IC50,CYP2C9,17400 nM
same,Tmax,"[1]; Racemic administered PO 10 mg/kg, chiral analysis, label = analyte",3.3 h
same,Tmax,"[1]; compound administered PO 10 mg/kg, analyte = compound administered",3.3 h
same,IC50,human ADORA3,26.2 nM
Cc1cc(Nc2nc([C@H](O)c3ccc(F)cc3)nc3ccccc23)n[nH]1 [(R)(−)],Ki,[2],25.8 nM
same,IC50,human ADORA3,212 nM
Cc1cc(Nc2nc([C@@H](O)c3ccc(F)cc3)nc3ccccc23)n[nH]1 [(S)(+)],IC50,human ADORA3,28.5 nM
